Data from PubChem BioAssay (Tox21).
Several values for one entry are separate records, joined by “and”; a condition that tells them apart may be missing. Equal values may be shown once. This is a selection; strong and weak results do not stand in their true shares. Records with an inconclusive call do not appear. Activity calls are given as the source filed them. Calls follow the shape of the dose curve; as a rule, active = well fitted activation curve with a large enough effect in the signal ratio in the repeat runs (not every such curve was filed as active); inconclusive = weak or mixed curves; inactive = flat fitted curve, though single readings scatter; the % refers to the signal ratio.

Experiment: qHTS assay to identify small molecule agonists of the TGF-beta/Smad signaling pathway (AID 1346859)
Settings: SBE-bla HEK293T, TGF-beta/Smad beta-lactamase reporter, 5 h; at 35.3 µM (top of the series)
From the text: U.S. Tox21 Program National Center for Advancing Translational Sciences [NCATS] NIH Chemical Genomics Center [NCGC] U.S. Environmental Protection Agency [EPA] National Institutes of Environmental Health Sciences [NIEHS] National Toxicology Program [NTP] U.S. Food and Drug Administration [FDA] Tox21 Assay Overview: Transforming growth factor beta (TGF-beta) superfamily consists of a large number of structurally related dimeric proteins that act as hormones or local mediators in regulating a wide range of biological functions. This superfamily includes TGF-betas themselves, the bone morphogenetic proteins (BMPs) and the activins. These ligands induce oligomerization of serine/threonine receptor kinases and phosphorylate the cytoplasmic signaling molecules of Smad protein family. CellSensor SBE-bla HEK 293T cell line (Life Technologies, Carlsbad, CA), responsive to TGF-beta was used to screen Tox21 10K compound library for identification of agonists/antagonists of the Smad signaling pathway. This cell line contains a beta-lactamase reporter gene under control of the Smad binding element (SBE) stably integrated into HEK 293T cells.
Tox21 Assay Protocol Summary: SBE-bla HEK 293T cells were dispensed at 4,000/well in 6 uL of assay medium into black wall/clear-bottom 1536-well plates using a Multidrop Combi (ThermoFisher Scientific, Waltham, MA) dispenser. After the assay plates were incubated at 37 C and 5% CO2 for an overnight, 23 nL of compounds dissolved in DMSO, positive controls or DMSO only was transferred to the assay plate by a Pintool station (Kalypsys, San Diego, CA). The assay plates were incubated at 37 C and 5% CO2 for 5 hr. One uL of LiveBLAzer B/G FRET substrate (Life Technologies) was added using a Flying Reagent Dispenser (Aurora Discovery, San Diego, CA) and the plates were incubated at room temperature for 2 hr. Fluorescence intensity (405 nm excitation, 460 nm and 530 nm emissions) was measured using an Envision plate reader (PerkinElmer, Shelton, CT).
% is scaled to controls: 0 for no effect and ±100 for the full control effect.

| SMILES | activation |
| --- | --- |
| OCCSCCO | inactive: 1.91% |

Same assay, conditions: SBE-bla HEK293T, TGF-beta/Smad beta-lactamase reporter, 5 h; at 76.8 µM (top of the series)

| SMILES | activation |
| --- | --- |
| OCCSCCO | inactive: 0.783% |

Same assay, conditions: SBE-bla HEK293T, TGF-beta/Smad beta-lactamase reporter, 5 h; at 76.8 µM (top of the series) unless noted

| SMILES | activation |
| --- | --- |
| Cc1c([N+](=O)[O-])cccc1[N+](=O)[O-] | inactive: 5.64% and inactive: 1% |
| O=[N+]([O-])c1cccc([N+](=O)[O-])c1 | inactive: -3.54% |
| O=[N+]([O-])[O-].[NH4+] | inactive: 1.35% and inactive: 0.9% |
| CN(C)CCCl | inactive: 1.9% |
| Nc1cc([N+](=O)[O-])cc([N+](=O)[O-])c1O | inactive: -10.8% |
| CCOP(=O)(CC)Oc1ccc([N+](=O)[O-])cc1 (configuration not stated) | inactive: 10.4% [at 35.3 µM] |
| CCN(CC)CCCl | inactive: -4.09% |
| CP(=O)(O)OCCC[Si](O)(O)O | inactive: -0.971% |
| CC(C)N(CCO)C(C)C | inactive: -0.2% |
| COc1ccc([N+](=O)[O-])cc1[N+](=O)[O-] | inactive: 0.0972% |
| CC(C)OP(C)(=O)OC(C)C | inactive: -3.16% and inactive: 0.0643% |
| COP(C)(=O)OC | inactive: -0.0663% and inactive: 5.38% |
| Cc1cccc([N+](=O)[O-])c1[N+](=O)[O-] | inactive: -5.73% [at 35.3 µM] |
| O=[N+]([O-])OCC(CO[N+](=O)[O-])(CO[N+](=O)[O-])CO[N+](=O)[O-] | inactive: 3.31% |
| N=C(N)N[N+](=O)[O-] | inactive: -0.418% |
| CCOP(=O)(CC)OCC | inactive: 1.27% |
| [NH4+].[O-][Cl+3]([O-])([O-])[O-] | inactive: -5.99% and inactive: 4.54% |
| C/C1=C2N=C(/C=C3N=C(/C(C)=C4\[N-][C@@](C)([C@@H]5N=C1[C@](C)(CCC(=O)NC[C@@H](C)OP(=O)([O-])O[C@H]1[C@@H](O)[C@@H](n6cnc7cc(C)c(C)cc76)O[C@@H]1CO)[C@H]5CC(N)=O)[C@@](C)(CC(N)=O)[C@@H]4CCC(N)=O)[C@@](C)(CC(N)=O)[C@@H]\3CCC(N)=O)C(C)(C)[C@@H]/2CCC(N)=O.[C-]#N.[Co+3] | inactive: -1.41% [at 35.3 µM] |
| N#CBr | inactive: 4.28% |
| Cc1ccc([N+](=O)[O-])cc1[N+](=O)[O-] | inactive: -1.45% and inactive: 0.0746% |
